Here are results for two molecules from PMC7184563 (Journal of Medicinal Chemistry, 2020).

The target in this test is human BCL6 BTB domain (Homo sapiens, UniProt P41182).

In the case of `Cn1c(=O)n(CCC(C)(C)O)c2cc(Nc3c(Cl)cncc3Cl)ccc21` [Compound 17f, 5-((3,5-Dichloropyridin-4-yl)amino)-3-(3-hydroxy-3-methylbutyl)-1-methyl-1,3-dihydro-2H-benzo[d]imidazol-2-one], the “fold drop in activity (TR-FRET)” value is listed as 37 fold.

With `Cn1c(=O)n(CCC(C)(C)O)c2cc(Nc3nc(N4CCOCC4)ncc3Cl)ccc21` [Compound 20a, 5-((5-Chloro-2-morpholinopyrimidin-4-yl)amino)-3-(3-hydroxy-3-methylbutyl)-1-methyl-1,3-dihydro-2H-benzo[d]imidazol-2-one], the “fold better potency (TR-FRET)” value is listed as 4 fold.
